From BindingDB's records for doi:10.1021/jm00080a030 (Abbott Laboratories, 1992)

Biological target: C5a anaphylatoxin chemotactic receptor 1 (Homo sapiens) (UniProt P21730)
Assay: Potency as the maximal lysosomal myeloperoxidase (MPO) release in PMNL assay

SMILES: CC[C@H](C)[C@H](NC(=O)[C@H](CC(N)=O)NC(=O)[C@H](C)N)C(=O)N[C@@H](CO)C(=O)N[C@@H](Cc1ccccc1)C(=O)N[C@@H](CCCCN)C(=O)N[C@@H](CC(=O)O)C(=O)N[C@@H](CCSC)C(=O)N[C@@H](CCC(N)=O)C(=O)N[C@@H](CC(C)C)C(=O)NCC(=O)N[C@@H](CCCNC(=N)N)C(=O)O
- EC50: 330 µM

SMILES: CC[C@H](C)[C@H](N)C(=O)N[C@@H](CO)C(=O)N[C@@H](Cc1ccccc1)C(=O)N[C@@H](CCCCN)C(=O)N[C@@H](CC(=O)O)C(=O)N[C@@H](CCSC)C(=O)N[C@@H](CCC(N)=O)C(=O)N[C@@H](CC(C)C)C(=O)NCC(=O)N[C@@H](CCCNC(=N)N)C(=O)O
- EC50: 60 µM
